{"sequences": {"note": "Chains of the proteins cited; added tags and fusions are not shown. Residues count along the entry.", "UniProt P08069, 31-1367, species assumed": "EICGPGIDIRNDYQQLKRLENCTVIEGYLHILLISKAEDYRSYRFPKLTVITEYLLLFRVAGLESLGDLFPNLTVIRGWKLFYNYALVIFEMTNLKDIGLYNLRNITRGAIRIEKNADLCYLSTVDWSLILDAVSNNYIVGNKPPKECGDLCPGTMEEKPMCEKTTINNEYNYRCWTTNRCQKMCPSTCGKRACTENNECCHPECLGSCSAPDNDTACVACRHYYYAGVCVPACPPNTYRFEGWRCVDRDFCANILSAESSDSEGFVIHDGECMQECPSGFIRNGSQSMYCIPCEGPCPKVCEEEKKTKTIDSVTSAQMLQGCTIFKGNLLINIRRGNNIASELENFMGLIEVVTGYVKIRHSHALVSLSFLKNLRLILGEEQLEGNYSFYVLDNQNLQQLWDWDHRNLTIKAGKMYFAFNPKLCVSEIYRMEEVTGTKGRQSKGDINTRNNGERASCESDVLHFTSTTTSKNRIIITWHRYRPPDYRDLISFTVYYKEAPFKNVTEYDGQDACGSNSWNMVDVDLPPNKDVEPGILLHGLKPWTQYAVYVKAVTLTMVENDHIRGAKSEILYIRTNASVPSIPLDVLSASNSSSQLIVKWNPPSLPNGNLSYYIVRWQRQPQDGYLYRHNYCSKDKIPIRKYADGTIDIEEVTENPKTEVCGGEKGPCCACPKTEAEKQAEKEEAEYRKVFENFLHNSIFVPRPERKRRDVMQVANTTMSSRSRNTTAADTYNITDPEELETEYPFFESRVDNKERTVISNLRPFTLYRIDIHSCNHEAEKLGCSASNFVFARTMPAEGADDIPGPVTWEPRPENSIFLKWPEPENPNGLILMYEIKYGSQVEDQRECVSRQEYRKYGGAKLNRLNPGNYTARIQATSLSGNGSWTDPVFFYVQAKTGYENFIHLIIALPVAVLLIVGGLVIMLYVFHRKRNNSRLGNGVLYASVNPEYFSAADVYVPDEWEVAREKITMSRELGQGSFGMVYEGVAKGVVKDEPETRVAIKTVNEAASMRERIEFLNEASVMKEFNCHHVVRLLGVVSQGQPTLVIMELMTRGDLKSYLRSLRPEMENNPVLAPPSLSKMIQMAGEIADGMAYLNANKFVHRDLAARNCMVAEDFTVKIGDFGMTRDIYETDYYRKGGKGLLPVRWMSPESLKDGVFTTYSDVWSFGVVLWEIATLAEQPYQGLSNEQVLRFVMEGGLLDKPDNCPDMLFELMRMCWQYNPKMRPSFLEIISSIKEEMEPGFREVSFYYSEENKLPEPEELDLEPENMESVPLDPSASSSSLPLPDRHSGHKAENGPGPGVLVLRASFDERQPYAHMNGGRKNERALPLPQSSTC"}, "source": "patent US20190160050A1", "about": "“SMALL MOLECULE INHIBITION FOR PREVENTING OR TREATING FIBROTIC DISEASES” (THE REGENTS OF THE UNIVERSITY OF CALIFORNIA, priority 2016, published 2019)", "origin": "cited, not measured here", "biological_target": "IGF1R (Homo sapiens, UniProt P08069)", "conditions": "read-out: IC50 for suppression of IGF1R autophosphorylation", "data": [{"substance": "N-(5-chloro-2-methoxyphenyl)-N-(2-methyl-4-quinolinyl)urea [PQ 401]", "values": [{"measurement": "IC50", "value": 12, "unit": "µM"}]}]}
